This assay addresses Human TASK-1 channels (Homo sapiens (Human), UniProt O14649). As to the kind of experiment: Determination of the activity on the TASK-1 channel in Xenopus oocytes (two-microelectrode voltage clamp). The format is cell-based. The conditions noted are these: human TASK-1 expressed in Xenopus oocytes, room temperature; read-out: IC50 value for TASK-1 inhibition. How it is done: Determination of the activity on the TASK-1 channel in Xenopus oocytes
Human TASK-1 channels were expressed in Xenopus oocytes. For this purpose, oocytes were isolated from Xenopus laevis and defoliculated. Subsequently, TASK-1-encoding RNA synthesized in vitro was injected into the oocytes. After two days of TASK-1 protein expression, TASK-1 currents were measured by two-microelectrode voltage clamp. Data were acquired and analyzed using a TEC-10cx amplifier (NPI Electronic, Tamm, Germany) connected to an ITC-16 interface (Instrutech Corp., Long Island, USA) and Pulse software (HEKA Elektronik, Lambrecht, Germany). Oocytes were clamped to −90 mV and TASK-1 mediated currents were measured during 500 ms voltage pulses to 40 mV. Oocytes were continuously superfused with ND96 buffer containing 96 mM sodium chloride, 2 mM potassium chloride, 1.8 mM calcium chloride, 1 mM magnesium chloride, 5 mM 4-(2-hydroxyethyl)-piperazine-1-ethanesulfonic acid (HEPES; pH adjusted to 7.4 with sodium hydroxide). All experiments were performed at room temperature. Test compounds were consecutively added to the bath solution at rising concentrations. Compound effects were calculated as the percentage inhibition of TASK-1 control current before compound addition. IC50 values were obtained by fitting the data to the general dose-response equation.

Protein sequences, listed by entry. Tags and fused reporters are not part of them. Lines headed by an entry give the natural chain unless they say otherwise; changes in a name come on top.
UniProt O14649: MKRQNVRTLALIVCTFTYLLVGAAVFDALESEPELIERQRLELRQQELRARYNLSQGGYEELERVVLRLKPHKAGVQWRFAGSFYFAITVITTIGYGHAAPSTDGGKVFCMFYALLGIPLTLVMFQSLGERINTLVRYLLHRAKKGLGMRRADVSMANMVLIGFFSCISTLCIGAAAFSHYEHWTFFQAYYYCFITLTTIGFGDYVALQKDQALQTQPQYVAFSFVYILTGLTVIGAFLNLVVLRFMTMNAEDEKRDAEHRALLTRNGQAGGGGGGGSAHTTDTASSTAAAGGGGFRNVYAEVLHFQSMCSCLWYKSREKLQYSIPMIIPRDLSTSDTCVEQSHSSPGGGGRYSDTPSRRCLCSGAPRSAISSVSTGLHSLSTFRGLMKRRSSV

We go through one substance from patent publication US9284333B2, “Fused pyrroledicarboxamides and their use as pharmaceuticals” (SANOFI, priority 2012, dated 2016).

Broadly, the IC50 is the concentration at which inhibition is half-maximal. Consider “3,4-Dihydro-1H-pyrrolo[2,1-c][1,4]thiazine-6,8-dicarboxylic acid 8-{[(R)-1-(4-fluoro-phenyl)-ethyl]-amide} 6-[((R)-1-phenyl-propyl)-amide] [16kq]”, for which the IC50 is 46 nM.
